In ChEMBL document CHEMBL2311488 (Bioorg Med Chem Lett, 2013):

What was measured:
Rattus norvegicus = species: Rattus norvegicus; assay: in vitro; conditions: liver microsomes
in vitro = conditions: human, liver microsomes

| remaining at 0.5 h (Rattus norvegicus) | remaining at 0.5 h (in vitro) | Compound |
| --- | --- | --- |
| 99.3% | 99.1% | CCS(=O)(=O)c1ccc2[nH]c(Oc3ccc(-c4ccccn4)cc3)nc2c1 |
| > 99.9% | 94.1% | CCS(=O)(=O)c1ccc2[nH]c(Oc3ccccc3C(F)(F)F)nc2c1 |
